Here are results for eight molecules from PubChem BioAssay AID504375 (National Center for Advancing Translational Sciences (NCATS), 2011).

The chains behind the UniProt entries cited, without tags or fusion partners.
UniProt Q01196, whole entry, looked up: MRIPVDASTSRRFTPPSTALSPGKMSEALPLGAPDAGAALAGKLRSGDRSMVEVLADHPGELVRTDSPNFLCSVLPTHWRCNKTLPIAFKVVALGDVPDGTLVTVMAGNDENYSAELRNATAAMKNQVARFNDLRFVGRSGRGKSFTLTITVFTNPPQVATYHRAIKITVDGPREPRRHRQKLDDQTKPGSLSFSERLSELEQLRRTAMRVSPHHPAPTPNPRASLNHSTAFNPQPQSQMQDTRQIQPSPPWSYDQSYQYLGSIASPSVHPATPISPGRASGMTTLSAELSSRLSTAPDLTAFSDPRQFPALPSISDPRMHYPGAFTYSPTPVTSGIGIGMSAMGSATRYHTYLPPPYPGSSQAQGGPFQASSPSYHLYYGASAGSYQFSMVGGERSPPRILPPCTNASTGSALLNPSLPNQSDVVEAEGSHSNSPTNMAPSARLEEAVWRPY
UniProt Q13951, whole entry, looked up: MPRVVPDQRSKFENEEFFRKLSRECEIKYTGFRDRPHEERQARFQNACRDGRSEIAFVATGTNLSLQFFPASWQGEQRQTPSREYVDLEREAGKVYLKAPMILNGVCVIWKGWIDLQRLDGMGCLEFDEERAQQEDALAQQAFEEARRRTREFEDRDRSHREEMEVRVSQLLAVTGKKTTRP

Each structure is given as a SMILES string. The list shows a part of the results, in another mix than the full data. Inconclusive results are not listed. The source made the active and inactive calls. Calls come from the whole dose curve; as a rule, active = well fitted inhibition curve with a large enough effect; inconclusive = small, poorly fitted or top-dose-only effect, or effect the other way; inactive = no such curve, though single readings can be large or run the other way.
% is set by controls: 0 for no effect and ±100 for the full control effect.

In this assay the target is Runt-related transcription factor 1 (Homo sapiens) + Core-binding factor subunit beta (Homo sapiens) (UniProt Q01196+Q13951). As to the kind of experiment: qHTS Assay for Compounds Blocking the Interaction Between CBF-beta and RUNX1 for the Treatment of Acute Myeloid Leukemia: Hit Validation with Orthogonal Assay. Particulars: CBFbeta-RUNX1 binding orthogonal assay, biochemical; at 41 µM (top of the series).
Take `O=[As](O)(c1ccccc1)c1ccc(O)cc1`: the activity change, negative = inhibition is inactive: 5.16%.
Take `O=P(Nc1nc2ccc(Cl)cc2s1)(c1ccccc1)c1ccccc1`: the activity change, negative = inhibition was inactive: 2.89%.
As to `O=[As](O)(c1ccc(O)cc1)c1ccccc1O`, the activity change, negative = inhibition is inactive: 21.7%.
As for `COc1cc(I)ccc1[As](=O)(O)O`, the activity change, negative = inhibition is inactive: 3.28%.
For the molecule `CCOC(=O)Nc1ccc([As](=O)(O)O)c(O)c1`, the activity change, negative = inhibition was inactive: -5.33%.
For the molecule `Nc1cccc([As](=O)(O)c2ccccc2)c1`, the activity change, negative = inhibition was inactive: -4.82%.
`O=[As](O)(O)c1cccnc1`: the activity change, negative = inhibition was inactive: 19.9%.
For the molecule `Nc1ccccc1[As](=O)(O)c1ccccc1`, the activity change, negative = inhibition is inactive: 7.63%.
